Each structure is given as a SMILES string.

This experiment deals with hamster flank organ. The experiment is described as follows: Flank organ, castrated immature male hamsters, topical treatment. Conditions: 24 days. It counts as in vivo, Syrian golden hamster. As for the experimental part: One to two weeks after castration, the hair on the lower back of each animal was clipped with an electric hair clipper and then shaved weekly to expose the flank organs. The animals were divided into 5 animals/treatment group. A treatment solution (5 μl) was applied topically to the right flank organ once a day using a Pipetteman and a polypropylene disposable tip. Unless specified the left flank organ was not treated. The treatment solution contained either (a) ethanol alone (vehicle and control), (b) an androgen (T or 5α-DHT), (c) a fatty acid, or (d) a combination of an androgen and a fatty acid. The flank organ was wiped with an alcohol pad to remove residual compound before each treatment. […] The flank organs, both the treated and untreated sides, were evaluated with methods to be described below to determine the effect of these treatments of the growth of the pigmented macules and the sebaceous glands. The body weight of each animal was recorded before and after treatment.
The data are presented as mean ± standard deviation. […]

For the compound `C[C@]12CC[C@H]3[C@@H](CCC4=CC(=O)CC[C@@]43C)[C@@H]1CC[C@@H]2O` [T, Testosterone, reference compound], the “index of the area of the pigmented macule” value (shortened to “index”) (0.5 μg/flank organ/day, control 2.4±1.4) is given as 45.6±8.0 mm^2; the “index” value (2 μg/flank organ/day) is 69.4±13.7 mm^2; the “index” value (5 μg/flank organ/day) turned out to be 66.4±4.2 mm^2.
